Assay results as given in PMC2288786, “Interaction between the C-terminal region of human myelin basic protein and calmodulin: analysis of complex formation and solution structure” (BMC Structural Biology, 2008).

Molecular target: T1, CaM (Rattus norvegicus, UniProt P0DP29)
T1 construct: made in house; host or cells: E. coli Rosetta (DE3)
Experiment: Thermal denaturation of CaM with and without MBP peptide followed by CD
Format: physicochemical, vertebrate
Details: CD at 222 nm, 30°C/h from +20 to +98°C

calmodulin [CaM]
temperature of major denaturation transition: ~90 °C
